The values below come from US6703417B2, “Aqueous-prodrug compound comprising moiety of paclitaxel or derivatives thereof, method of preparing same and pharmaceutical composition comprising same” (Kolon Industries, Inc., priority 2000, dated 2004).

For the series the following is noted: in 1 ml of distilled water; amount at which fluidity occurs and haze is 0.5 or less.
As to “2′-monomethoxypolyethyleneglycol 5000-succinyloxymethyloxycarbonyl-paclitaxel [Example 2]”, the Amount of dissolving was 400 mg or more.

As for “2′-monomethoxypolyethyleneglycol 20000-succinyloxymethyloxycarbonyl-paclitaxel [Example 8]”, the Amount of dissolving is 400 mg or more.

As to “2′-polyethyleneglycol 20000-di(succinyloxymethyloxycarbonyl-paclitaxel) [Example 9]”, the Amount of dissolving is 400 mg or more.

For the substance “7-mPEG 5000-succinyloxymethyloxycarbonyl-paclitaxel [Example 6]”, the Amount of dissolving is listed as 400 mg or more.

On to “7-monomethoxypolyethyleneglycol 5000-succinylthiomethyloxy carbonyl-paclitaxel) [Example 12]”, for which the Amount of dissolving is 400 mg or more.

Turning to “7-monomethoxypolyethyleneglycol 20000-succinyloxymethyloxycarbonyl-paclitaxel [Example 10]”, the Amount of dissolving was 400 mg or more.

Take “7-polyethyleneglycol 6000-di(succinyloxymethyloxycarbonyl-paclitaxel) [Example 7]”: the Amount of dissolving is on record as 400 mg or more.

On to “7-polyethyleneglycol 20000-di(succinyloxymethyloxycarbonyl-paclitaxel [Example 11]”, for which the Amount of dissolving is 400 mg or more.
